Patent US20110124666A1, “3,4-DIHYDROPYRIMIDINE TRPA1 ANTAGONISTS” (Janssen Pharmaceutica NV a corporation, priority 2008, published 2011)

Chains of the proteins cited; added tags and fusions are not shown.
UniProt O75762, whole entry: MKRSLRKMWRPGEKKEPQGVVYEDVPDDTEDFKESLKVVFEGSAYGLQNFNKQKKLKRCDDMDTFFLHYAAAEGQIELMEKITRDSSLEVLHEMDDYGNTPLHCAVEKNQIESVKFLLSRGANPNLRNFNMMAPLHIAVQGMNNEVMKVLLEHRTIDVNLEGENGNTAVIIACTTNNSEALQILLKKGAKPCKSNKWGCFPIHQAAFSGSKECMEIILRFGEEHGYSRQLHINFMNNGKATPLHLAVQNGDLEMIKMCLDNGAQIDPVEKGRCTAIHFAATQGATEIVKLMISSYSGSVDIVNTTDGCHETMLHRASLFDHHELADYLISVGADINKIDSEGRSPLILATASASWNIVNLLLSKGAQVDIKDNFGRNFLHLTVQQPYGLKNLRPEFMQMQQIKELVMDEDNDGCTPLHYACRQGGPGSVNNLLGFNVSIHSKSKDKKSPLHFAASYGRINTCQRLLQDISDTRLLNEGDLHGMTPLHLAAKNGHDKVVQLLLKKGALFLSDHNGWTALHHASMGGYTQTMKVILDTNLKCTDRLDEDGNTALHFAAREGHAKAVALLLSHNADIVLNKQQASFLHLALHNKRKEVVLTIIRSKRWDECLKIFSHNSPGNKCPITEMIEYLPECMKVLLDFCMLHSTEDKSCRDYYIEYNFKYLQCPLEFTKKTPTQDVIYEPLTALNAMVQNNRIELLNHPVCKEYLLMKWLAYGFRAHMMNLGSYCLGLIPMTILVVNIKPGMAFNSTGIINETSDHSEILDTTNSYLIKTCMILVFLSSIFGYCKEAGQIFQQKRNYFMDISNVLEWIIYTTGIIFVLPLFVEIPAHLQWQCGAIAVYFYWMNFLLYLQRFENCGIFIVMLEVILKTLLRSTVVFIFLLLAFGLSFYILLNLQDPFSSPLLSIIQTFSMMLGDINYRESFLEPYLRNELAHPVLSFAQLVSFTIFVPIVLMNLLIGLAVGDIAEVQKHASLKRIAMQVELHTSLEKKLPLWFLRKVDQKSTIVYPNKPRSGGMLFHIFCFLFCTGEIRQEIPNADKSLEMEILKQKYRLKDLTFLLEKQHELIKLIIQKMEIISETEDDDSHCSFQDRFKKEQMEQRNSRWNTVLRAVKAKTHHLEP

Biological target: hTRPA1 (Homo sapiens, UniProt O75762)
Experiment: Ca2+ fluorometry TRPA1 antagonism in hTRPA1/TREx-HEK293 cells (FDSS)
Conditions: read-out: IC50 hTRPA1, 11H-dibenzo[b,e]azepine-10-carboxylic acid methyl ester as TRPA1 agonist (25 nM), hTRPA1-HEK cells, Fluo4-AM

COc1ccc(Oc2cccc(C3NC(=S)NC4=C3C(=O)c3ccccc34)c2)cc1 (stereo not shown) [Co. No. 20]
IC50: 1460 nM
